{"source": "patent US20180178043A1", "about": "“FOCUSTED ULTRASOUND HYPERTHERMIA” (KING'S COLLEGE LONDON, priority 2015, published 2018)", "key": {"IGROV-1 tumours": {"tested_on": "IGROV-1 tumours", "conditions": "mouse, in vivo"}, "[1]": {"tested_on": "IGROV-1, SKOV-3 and BT474 cell line tumours", "conditions": "mouse, in vivo"}}, "data": [{"substance": "XL750-trastuzumab: Trastuzumab covalently labelled with XenoLight CF 750 NIRF dye", "values": [{"measurement": "NIRF signal of excised heated right-hand tumours vs left-hand controls", "setting": "IGROV-1 tumours", "value": "substantially more NIRF signal compared to the left-hand controls"}, {"measurement": "accumulation in the area of the heated tumour", "setting": "IGROV-1 tumours", "value": "substantial increase in antibody accumulation"}, {"measurement": "fluorescence accumulation, ventral side", "setting": "IGROV-1 tumours", "value": "principally in the liver and the bladder"}, {"measurement": "retention of NIRF signal in the tumours", "setting": "IGROV-1 tumours", "value": "retained in the tumours for several weeks"}, {"measurement": "time for which signal intensity was maintained", "setting": "IGROV-1 tumours", "value": "at least 7 days"}, {"measurement": "uptake in left vs right tumour (NIRF brightness)", "setting": "IGROV-1 tumours", "value": "the same in both tumours"}, {"measurement": "time of maximum accumulation in both tumours", "setting": "IGROV-1 tumours; iv, 8 mg/kg", "value": "24 to 48", "unit": "h"}, {"measurement": "effect of level of Her-2 expression of the cancer cell lines", "setting": "[1]", "value": "appeared not to affect the biodistribution of the antibody in tumours"}]}]}
